In patent publication US20220169997:

Tests used:
[1] = system: PR408: SP(HSA)-PTEN-L-cathepsinB**-HSA-6xHis
[2] = system: PR407: SP(HSA)-PTEN-L-cathepsin B*-HSA-6xHis

With Active CATSB (BioVision #7580-5) the “in vitro cleavage of the fusion in CHO-3E7 supernatant (0.3 µg/ml CATSB; only at low pH), fraction released as PTEN-L-like fragment, WB with F-1 anti-PTEN” value [1] was “CATSB cleaved PR407 (SEQ ID NO:131; cDNA SEQ ID NO:159) and PR408 (SEQ ID NO:132; cDNA SEQ ID NO:160) to release a PTEN-L-like fragment at similar amounts (about 20% of total)” and the “in vitro cleavage of the fusion in CHO-3E7 supernatant (0.3 µg/ml CATSB; only at low pH), fraction released as PTEN-L-like fragment, WB with F-1 anti-PTEN” value [2] was “CATSB cleaved PR407 (SEQ ID NO:131; cDNA SEQ ID NO:159) and PR408 (SEQ ID NO:132; cDNA SEQ ID NO:160) to release a PTEN-L-like fragment at similar amounts (about 20% of total)”.
